Drawing on US6423716B1, “Nitrogenous heterocyclic compounds” (Kyowa Hakko Kogyo Co., Ltd., priority 1998, dated 2002), this text covers IC50 for three compounds.

Chains of the proteins cited; added tags and fusions are not shown. Residues count along the entry.
UniProt P09619, 33-1106: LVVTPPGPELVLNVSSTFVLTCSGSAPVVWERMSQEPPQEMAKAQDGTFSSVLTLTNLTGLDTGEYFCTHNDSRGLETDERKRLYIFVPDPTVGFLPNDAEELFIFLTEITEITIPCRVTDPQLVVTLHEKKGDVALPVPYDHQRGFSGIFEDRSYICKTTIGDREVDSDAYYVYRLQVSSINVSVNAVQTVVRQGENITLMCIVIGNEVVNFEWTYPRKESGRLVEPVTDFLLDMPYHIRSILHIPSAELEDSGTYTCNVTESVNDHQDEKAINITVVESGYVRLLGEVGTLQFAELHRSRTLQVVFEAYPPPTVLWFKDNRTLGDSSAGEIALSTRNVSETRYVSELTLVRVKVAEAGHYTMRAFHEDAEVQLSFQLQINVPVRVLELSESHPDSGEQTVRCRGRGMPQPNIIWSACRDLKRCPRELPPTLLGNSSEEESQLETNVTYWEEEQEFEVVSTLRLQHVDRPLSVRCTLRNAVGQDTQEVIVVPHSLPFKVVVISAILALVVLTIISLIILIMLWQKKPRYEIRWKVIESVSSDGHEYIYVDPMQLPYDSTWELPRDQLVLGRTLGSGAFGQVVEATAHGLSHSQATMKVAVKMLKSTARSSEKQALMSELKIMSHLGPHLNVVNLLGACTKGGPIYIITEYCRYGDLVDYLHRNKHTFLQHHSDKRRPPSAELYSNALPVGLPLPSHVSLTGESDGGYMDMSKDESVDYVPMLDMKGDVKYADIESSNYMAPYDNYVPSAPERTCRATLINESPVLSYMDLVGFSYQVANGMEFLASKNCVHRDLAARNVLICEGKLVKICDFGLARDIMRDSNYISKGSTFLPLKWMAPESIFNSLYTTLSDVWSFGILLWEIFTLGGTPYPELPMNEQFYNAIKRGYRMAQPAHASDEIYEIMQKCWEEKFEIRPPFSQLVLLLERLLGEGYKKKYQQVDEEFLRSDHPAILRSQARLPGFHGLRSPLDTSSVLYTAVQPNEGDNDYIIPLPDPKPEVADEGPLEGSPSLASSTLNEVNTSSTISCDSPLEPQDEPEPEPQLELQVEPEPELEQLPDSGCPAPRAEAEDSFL

In the experiment the target is T1, human β-PDGF receptor (Homo sapiens, UniProt P09619).
T1 construct: expressed in transfected cells; host or cells: Chinese hamster ovary (CHO) cells
Kind of experiment: PDGF receptor phosphorylation inhibition test. Type of experiment: cell-based. Conditions: CHO cells expressing human β-PDGF receptor cDNA; concentration inhibiting 50% of PDGF receptor phosphorylation. On the procedure:
PDGF Receptor Phosphorylation Inhibition Test
This test was carried out according to the process disclosed in a literature [J. Biol. Chem., 266: 413-418 (1991)]. In this case, Chinese hamster ovary (CHO) cells to which human β-PDGF receptor cDNA had been inserted and in which it had been expressed were used in the test.
Test results on Compounds 22, 50, 52, 63 and 66 were represented by a ratio (%) of inhibiting phosphorylation of the PDGF receptor at 10 μM, with the results shown in Table 3.

The compound `Nc1nc(N2CCN(C(=O)Nc3ccc(Oc4ccccc4)cc3)CC2)c2[nH]cnc2n1` [Compound 5, 4-(2-Amino-6-purinyl)-N-(4-phenoxyphenyl)-1-piperazinecarboxamide] showed an IC50 of 200 nM. This counts as sub-micromolar. The value for `S=C(NCc1ccccc1)N1CCN(c2ncnc3nc[nH]c23)CC1` [Compound 3, N-Benzyl-4-(6-purinyl)-1-piperazinethiocarboxamide] was 890 nM. The value for `O=C(Nc1ccc(Oc2ccccc2)cc1)N1CCN(c2ncnc3nc[nH]c23)CC1` [Compound 1, N-(4-Phenoxyphenyl)-4-(6-purinyl)-1-piperazinecarboxamide] was 290 nM.

One may read the IC50 as the point on the concentration scale where inhibition reaches its midpoint.
